The experiment deals with cholesterol-fed rat. Nature of the experiment: Serum cholesterol lowering action in cholesterol-fed rat. It counts as in vivo. Particulars: alone, 10 mg/kg/day, once a day for 7 days, value to control. Here is the method:
The pharmacological experiment of serum cholesterol lowering action by the combination of compound 56 and atorvastatin or fenofibrate in cholesterol-fed rat.
Male Splague-Dawley rats weighing 300˜500 g (Nihon SLC Co. Ltd.) were fed MF-2 chow (Nihon Crea Co. Ltd.) until study onset. At the study onset, the chow was changed to MF-2 chow containing 1% cholesterol and 0.5% cholic acid. Compound 56 at 0.3 mg/kg, atorvastatin at 1 mg/kg or fenofibrate at 10 mg/kg dissolved in polyethylene glycol 400 were simultaneously administered once a day for 7 days. Twenty hours after the last administration, blood was collected from the abdominal aorta under ether anaesthesia, and serum was separated. The cholesterol value was measured using Cholesterol E Test Wako (Wako Pure Chemical Co. Ltd.). Furthermore, the effect of combined dosage of compound 56 at 0.3 mg/kg and atorvastatin at 1 mg/kg or fenofibrate at 10 mg/kg were examined similarly. The experimental No. of 1˜3, 4 and 5 indicates the case of compound 56 alone, atrovastatin alone and fenofibrate alone, respectively. The experimental 5 and 6 indicates the combined dosage examples in the present invention. Each reduction percent is shown as the value to control.
Except of the use of compound 37 instead of compound 56, quietly same experiment to pharmacological experiment 1 was carried out. Each reduction % is shown as the value to control.

Turning to `CC(C)OC(=O)C(C)(C)Oc1ccc(C(=O)c2ccc(Cl)cc2)cc1` [Fenofibrate, fenofibrate, reference compound], the “Reduction % of serum cholesterol value” came out at 10.7%.
